The source of these data is PMC12186257, “Serendipitous and Systematic Chemoproteomic Discovery of MBLAC2, HINT1, and NME1‑4 Inhibitors from Histone Deacetylase-Targeting Pharmacophores” (ACS Chemical Biology, 2025).

Protein sequences, listed by entry. Tags and fused reporters are not part of them.
UniProt Q68D91, whole entry: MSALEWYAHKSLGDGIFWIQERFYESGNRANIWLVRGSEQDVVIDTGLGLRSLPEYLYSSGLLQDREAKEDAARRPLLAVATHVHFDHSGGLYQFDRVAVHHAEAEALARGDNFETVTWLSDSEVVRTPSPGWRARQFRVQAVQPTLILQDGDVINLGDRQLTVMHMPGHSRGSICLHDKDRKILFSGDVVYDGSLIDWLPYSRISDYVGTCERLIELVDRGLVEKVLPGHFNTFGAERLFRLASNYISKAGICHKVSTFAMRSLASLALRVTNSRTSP

Assay [1] has as its target MBLAC2 (Homo sapiens, UniProt Q68D91). In words: chemoproteomic competition assay (MV4-11/SW620 lysate, iA/iC/iQ beads, MS readout). Format: binding. The note with it: read-out: apparent dissociation constant (KDapp) MBLAC2; nine-dose competition assay.
Assay [2] has as its system HDAC. The assay is described as above. Format: binding, human. The conditions noted are these: nine-dose competition assay.

With `CC(C)(C)c1ccc(CN(C(=O)CN(Cc2c(F)c(F)c(F)c(F)c2F)S(=O)(=O)c2ccc(F)cc2)c2ccc(C(=O)NO)cc2)cc1`, the Kd in assay [1] is 3.5 µM. The “concentration up to which no HDAC target engagement” value in assay [2] was above 30 µM.
